Test: Metabolites in 24-hour urine of rats given Maillard reaction products orally (HPLC)
Conditions: rat
Protocol: Then, 100 μl of acetonitrile/phosphate buffer (7/93) adjusted to pH 2.0 was injected into the HPLC apparatus through the injection microsyringe. The apparatus and the experimental conditions were the same as those described above.
The specification of the HPLC apparatus and experimental conditions were the same as described above.

SMILES: O=Cc1ccc[nH]1 [pyrrole-2-aldehyde]
- extent of metabolism of the administered amount (50 mg/kg oral, urine collected after 24 hours): the total amount of what was administered was metabolized
- conversion by metabolism in liver (50 mg/kg, 24-hour urine): converted into a group C compound
